From patent US20200397840A1, “Cognitive Function Improvement Agent” (Kao Corporation, priority 2017, published 2020)

Legend:
[1] = test system: senescence-accelerated mice (SAM) P8; test: Novel object recognition test in senescence-accelerated mice; assay type: in vivo; details: SAMP8 mice, 50 mg/kg of body weight/day orally for 4 weeks, vs control group (FIG. 5)
Protocol: Male senescence-accelerated mice (SAM) P8 (Japan SLC, inc.), which developed memory and learning impairment associated with age, were transferred at 27 weeks old, and used after a 5-day quarantine period and a 3-day acclimating period. In the acclimating period the body weight was measured and the mice were grouped so that the body weight of each group was equivalent to each other. As a test substances injection water (Otsuka Pharmaceutical Co., Ltd.) of mannitol (50 mg/kg of body weight/day, SAC Corporation) was orally administered once per day for 4 weeks (28 to 32 weeks old) using a stomach tube. After administration of the test substance for 4 weeks (33 weeks old), memory and learning function was assessed. […] The behavior of the mice was video-recorded for 10 minutes and the time of recognition (the time for which the nose or the forelimb of the mouse touched each object) was measured (training trial). […] The behavior of the mice was video-recorded for 5 minutes and the time of recognition was measured (retention trial). The score of memory and learning ability was assessed based on the ratio of recognition of novel objects in the retention trial (see the following equation). […] When the P value was 0.05 or less, the difference was determined to be statistically significant.

[2] = test system: healthy subjects of men and women; test: CNS Vital Signs cognitive function assessment after single intake in healthy men and women; assay type: in vivo, human; details: single intake of 1.5 g mannitol with lunch, vs control diet, crossover (FIG. 6)
Protocol: Cognitive function of 4 healthy subjects of men and women. (average age 38.5 years old±9.5, 3 men and a person) after the intake of a control diet and a diet containing 1.5 g of mannitol powder (D-mannitol, B Food Science Co., Ltd.) (hereinafter described as a mannitol diet) was assessed. […] The following cognitive function tests were performed before the intervention (before lunch, from 10:10) and after the intervention (after lunch, from 12:40). The tests were performed in a crossover design with a washout period of 1 week or more. In two days of the tests in total the same subject had both the control diet and the mannitol diet and measurement was performed. Control diet: instant cup udon noodle (458 kcal) Mannitol diet: instant cup udon noodle to which 1.5 g (2.4 kcal) of mannitol powder was added (460.4 kcal) CNS Vital Signs (CNS Vital Signs, LLC, Japanese version) was used for the assessment of cognitive function (Archives of Clinical Neuropsychology, 2006, 21:7:623-643). In the present Examples, cognitive function was assessed based on the following 7 tests. First, 15 words are presented, one by one, on a PC screen every 2 seconds, and the subject memorizes them. Immediately or about 30 minutes after that, a larger number of words including 15 new words are presented, and the subject presses the space bar when a word they have memorized appears. First, 15 geometric figures are presented, one by one, on a PC screen every 2 seconds, and the subject memorizes them. Immediately or about 30 minutes after that, a larger number of figures including 15 new figures are presented, and the subject presses the space bar when a figure they have memorized appears. The subject presses the space bar with his/her right index finger as fast as possible for 10 seconds. The test is repeated with the left hand. A table containing combinations of a symbol and a number is presented above on a PC screen. The subject types in the number that corresponds to the symbol in an empty box below on the screen. The stroop test has three parts. In the first part, the words RED, YELLOW, BLUE and GREEN printed in black appear at random on the screen. The subject presses the space bar as soon as the word appears (simple reaction). In the second part, the words RED, YELLOW, BLUE and GREEN appear on the screen, printed in color. The subject presses the space bar when the color of the word matches the meaning of the word (complex reaction). In the third part, the words RED, YELLOW, BLUE and GREEN appear on the screen, printed in color. […] Three figures (a square or a circle in red or blue) appear on the screen, one on top, two on the bottom. The subject is instructed to follow the rule of matching figures by “shape” or “color” (“match figures by shape” or “match figures by color”), and selects one of two bottom figures, that matches the top figure. The rule of matching instructed (“match figures by shape” or “match figures by color”), and colors (red and blue) and shapes (a circle and a square) of the three figures are changed at random. The subject responds to only “B” and press the space bar, out of letters presented at random on the screen, but not to any other letter. The test continues for 5 minutes. Standardized scores of cognitive function domains were calculated from the results of the tests based on the method of calculation of CNS Vital Signs. The standardized score is calculated by normalization with an average value of 100 and standard deviation of 15 for the subject's age group (in 5-year increments). The results of the tests shown in Table 4 are reflected in the calculation of scores for the respective cognitive function domains. The values obtained are in the average value±standard deviation. To compare the average value of the control diet intake group (control group) with that of the mannitol diet intake group (mannitol-supplemented group), paired t-test was used.

OC[C@@H](O)[C@@H](O)[C@H](O)[C@H](O)CO [mannitol]
ratio of recognition of novel objects (object recognition and learning ability) [1]: increase
standardized score of composite memory [2]: significantly higher (P<0.05)
standardized score of motor speed [2]: tended to be higher (P<0.1)
standardized score of neurocognitive index [2]: significantly higher (P<0.05)
standardized score of processing speed [2]: significantly higher (P<0.05)
standardized score of psychomotor speed [2]: significantly higher (P<0.05)
standardized score of reaction time [2]: tended to be higher (P<0.1)
standardized score of verbal memory [2]: tended to be higher (P<0.1)
